Laboratory results as given in paper PMC7494911.

Key:
pSmad2 in BAL cells = conditions: mouse, in vivo, 1 mg/kg
[1] = test system: bleomycin-induced lung fibrosis; conditions: mouse, in vivo
serum C3M = conditions: bleomycin 3 mg/kg, 15 mg/kg/day s.c. osmotic pump, prophylactic, in words
pSmad2 in lung tissue = conditions: prophylactic dosing, 14 days post bleomycin, in words
βIG-H3 = conditions: mouse, in vivo
PAI-1 = conditions: mouse, in vivo
[2] = test system: bleomycin-induced pulmonary fibrosis; conditions: mouse, in vivo

Cc1cc(C)n(-c2cccc([C@H](CC(=O)O)CN3CC[C@@H](CCc4ccc5c(n4)NCCC5)C3)c2)n1 [GSK3008348]
pSmad2 in BAL cells vs bleomycin/vehicle (pSmad2 in BAL cells): reduction
lung hydroxyproline levels [1]: partial inhibition
serum C3M (serum C3M): substantial inhibition
phosphorylation of Smad2 in lung tissue (pSmad2 in lung tissue): inhibited
bleomycin-induced increase of βIG-H3 in BALF (βIG-H3): inhibited
bleomycin-induced increase of PAI-1 in BALF (PAI-1): inhibited
fibrosis by hydroxyproline and histology [2]: significant reduction in fibrosis
